Experimental findings from article PMC10229639 are described below.

The target of test [1] is myosin Va S1 S217A, single-headed construct of chicken myosin Va (residues 1-792) with a mutation in switch I (chicken | not stated) (UniProt Q02440). Put plainly: three-bead laser trap assay (mini-ensemble); no added Pi; myosin Va S1 (10 ug/mL) held on nitrocellulose-coated pedestals through c-Myc antibody, actin filament stretched between two trapped beads; trap stiffness 0.04, 0.06 and 0.10 pN/nm; 91 mM KCl, 1 mM EGTA, 4 mM MgCl2, 1 mM DTT, 100 uM ATP, 25 C, pH 7.0; about 4-5 myosin heads in reach of the filament.

The target of test [2] is myosin Va S1 (WT), single-headed construct of chicken myosin Va (residues 1-792) (chicken | not stated) (UniProt Q02440). The description is as above.
In test [3] the target is myosin Va S1 S217A, single-headed construct of chicken myosin Va (residues 1-792) with a mutation in switch I (chicken | not stated) (UniProt Q02440). Description: three-bead laser trap assay (mini-ensemble); 30 mM Pi; myosin Va S1 (10 ug/mL) held on nitrocellulose-coated pedestals through c-Myc antibody, actin filament stretched between two trapped beads; trap stiffness 0.04, 0.06 and 0.10 pN/nm; KCl reduced to keep ionic strength 125 mM, 100 uM ATP, 25 C, pH 7.0.

Test [4] concerns the target myosin Va S1 (WT), single-headed construct of chicken myosin Va (residues 1-792) (chicken | not stated) (UniProt Q02440). Described as above.

Consider “actin filament (actin isolated from chicken skeletal muscle) (from UniProt P68139 1-377) (natural protein)”, for which the ko (detachment rate from actin without load, Bell-bond fit), 0 mM Pi in test [1] turned out to be 11.1 s⁻¹. In test [2], this substance had an increase of binding event lifetime at 0.1 against 0.04 pN/nm, 0 mM Pi of 50% and a ko (detachment rate from actin without load, Bell-bond fit), 0 mM Pi of 16.8 s⁻¹. In test [3], this substance displayed a further reduction of binding event lifetime at 0.10 against 0.06 pN/nm, 30 mM Pi of 35%; a ko (detachment rate from actin without load, Bell-bond fit), 30 mM Pi of 2.5 s⁻¹; a rate of Pi-induced detachment from actin without load (Bell-bond fit), 30 mM Pi of 1.4 s⁻¹; a reduction of mean binding event lifetime at 0.06 against 0.04 pN/nm, 30 mM Pi of 23%. Also, in test [4], the binding event lifetime at 0.10 pN/nm with 30 mM Pi, percent of control (0.04 pN/nm, 0 mM Pi) (% of the control value) is less than 50; the further reduction of binding event lifetime at 0.06 against 0.04 pN/nm, 30 mM Pi amounted to 15%; the ko (detachment rate from actin without load, Bell-bond fit), 30 mM Pi is 13.7 s⁻¹; the rate of Pi-induced detachment from actin at a 4 pN load (Bell-bond fit), 30 mM Pi was found to be 10 s^−1. In test [4], the rate of Pi-induced detachment from actin without load (Bell-bond fit), 30 mM Pi is 5 s⁻¹ and the reduction of average binding event lifetime with 30 mM Pi against 0 mM Pi (0.04 pN/nm) amounted to 25%.
